{"source": "paper PMC8548882", "about": "“The Trp-rich Antimicrobial Amphiphiles With Intramolecular Aromatic Interactions for the Treatment of Bacterial Infection” (Frontiers in Microbiology, 2021)", "key": {"HEK 293T cells": {"system": "HEK 293T cells", "format": "cell-based, human", "settings": "MTT, 24h, tested 2–128μM", "procedure": "(§1) The MTT (3-[4,5 dimethylthiozol-2-yl]-2,5-diphenylterazoliumbromide) dye was selected to analyze the cytotoxicity of peptides against the murine macrophage cell RAW 264.7 (National Collection of Authenticated Cell Cultures, Shanghai, China), human embryonic kidneys (HK293T), and the porcine intestinal epithelial cells (IPEC-J2) as in our previously study ([Li et al., 2020]). In short, the cells (10^4 cells/well) were seeded into 96-well plates and were cultivated overnight. Then the peptides with different final concentration (2μM, 4μM, 8μM, 16μM, 32μM, 64μM, and 128μM) were introduced into the plate and challenged with cells for 24h. After overnight incubation, the 50μl MTT (0.5mg/ml) was added into the cell cultures for 4h. Then the plate was centrifuged to discard the supernatants and obtain the formazan crystals. The DMSO (dimethyl sulfoxide) was employed as a solvent to dissolve the formazan crystals on the bottom of the plate and the optical density was read at 492nm with a microplate reader."}, "RAW 264.7 cells": {"system": "RAW 264.7 cells", "format": "cell-based, murine", "settings": "24h", "procedure": "as §1"}}, "data": [{"smiles": "CC[C@H](C)[C@H](NC(=O)CN)C(=O)NCC(=O)N[C@@H](C)C(=O)N[C@H](C(=O)N[C@@H](CC(C)C)C(=O)N[C@@H](CCCCN)C(=O)N[C@H](C(=O)N[C@@H](CC(C)C)C(=O)N[C@H](C(=O)N[C@H](C(=O)NCC(=O)N[C@@H](CC(C)C)C(=O)N1CCC[C@H]1C(=O)N[C@@H](C)C(=O)N[C@@H](CC(C)C)C(=O)N[C@H](C(=O)N[C@@H](CO)C(=O)N[C@@H](Cc1c[nH]c2ccccc12)C(=O)N[C@H](C(=O)N[C@@H](CCCCN)C(=O)N[C@@H](CCCNC(=N)N)C(=O)N[C@@H](CCCCN)C(=O)N[C@@H](CCCNC(=N)N)C(=O)N[C@@H](CCC(N)=O)C(=O)N[C@@H](CCC(N)=O)C(N)=O)[C@@H](C)CC)[C@@H](C)CC)[C@@H](C)O)[C@@H](C)O)C(C)C)C(C)C", "note": "[Melittin, reference compound]", "values": [{"measurement": "IC50", "setting": "HEK 293T cells", "result": 5.38, "unit": "µM"}, {"measurement": "cell viability", "setting": "RAW 264.7 cells; RAW 264.7, MTT, 32μM", "result": "below 5%"}, {"measurement": "IC50", "setting": "RAW 264.7 cells; RAW264.7, MTT, tested 2–128μM", "result": 3.79, "unit": "µM"}]}]}
